## Antibody variant affinities, Ab-95 light chain, assay 2

Data: MIT Lincoln Laboratory AlphaSeq set, Engelhart et al. 2022, doi:10.1038/s41597-022-01779-4, as distributed in FLAb.

Antigen: PDVDLGDISGINAS, a 14-residue peptide of the SARS-CoV-2 spike HR2 region.

Ab-95 is the parent antibody, in scFv form: VH, then three GGGGS repeats, then VL. The heavy chain is unchanged in all variants.
VH: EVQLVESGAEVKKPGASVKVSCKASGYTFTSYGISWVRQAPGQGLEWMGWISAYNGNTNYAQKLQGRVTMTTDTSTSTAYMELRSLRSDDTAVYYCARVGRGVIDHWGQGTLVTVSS
VL: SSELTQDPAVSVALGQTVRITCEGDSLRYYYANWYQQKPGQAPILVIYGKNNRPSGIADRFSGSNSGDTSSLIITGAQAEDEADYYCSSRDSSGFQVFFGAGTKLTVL

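The parent was found by panning a naive human phage display library on the peptide. Variants in AAYL52 differ from the parent at up to three CDR positions; double and triple changes were sampled at random. Affinity was read by AlphaSeq, a pooled yeast mating assay with surface-displayed partners. The frequency of each diploid, read from paired DNA barcodes, reflects how well the two displayed proteins bind. Read counts were normalised to the haploid input and turned into Kd by a linear fit to BCL2-family pairs of known affinity, for each replicate. Each pool was mated in three replicate cultures.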

Changes read parent residue, position, new residue, counted from the first residue of the VL shown.
All variants listed here change S26 of the VL, counted from its first residue.
Each Kd is an estimate from the mating assay, the geometric mean of the replicates in which the pair was seen; lower is stronger.
"nd" marks a missing value. The strain was present, yet no cells mated with the target were sequenced in any replicate, which points to weak or no binding.
Parent in this assay: reference entry 200 nM, copy in this library 180 nM.
Three control strains display no target. For library AAYL52, 28% of the pairings with them gave a signal, with a median of 8.2 µM and one signal in twenty below 800 nM, so weak values seen in few replicates may be background. The control count says in how many pairings with the empty strains this scFv gave a signal.

changes,apparent Kd,replicates with signal,control signals
S26V+S88D+G94N,2.5 µM,2 of 3,7 of 9
S26K+Y30L+K50W,65 µM,1 of 3,4 of 9
S26C,760 nM,3 of 3,4 of 9
S26G+S55R+D91A,5.4 µM,3 of 3,4 of 9
S26F+L27F+S93L,1.9 µM,1 of 3,1 of 9
S26I+Y31E+F95D,5.3 µM,2 of 3,1 of 9
S26D+G49T+R53G,44 µM,1 of 3,2 of 9
G24M+S26L+N52V,21 µM,2 of 3,4 of 9
S26F+N33Q+S88W,21 µM,2 of 3,2 of 9
D25V+S26H+R53G,5.0 µM,2 of 3,4 of 9
S26H,nd,0 of 3,0 of 9
S26F+Y30S,23 nM,3 of 3,4 of 9
S26Q+S92I+G94H,nd,0 of 3,0 of 9
S26G+A32V+N52V,2.2 µM,3 of 3,4 of 9
G24H+S26M+K50G,1.4 µM,3 of 3,1 of 9
S26E+S89R+Q96L,1.8 µM,1 of 3,4 of 9
S26M+N33P+S89R,320 nM,3 of 3,2 of 9
S26F+Y30T+N51P,11 µM,3 of 3,1 of 9
S26K+G49S+S92I,25 µM,2 of 3,0 of 9
S26E+G94W+F95M,110 nM,3 of 3,4 of 9
S26I+S88L+S92W,2.3 µM,1 of 3,1 of 9
S26T+L27E+S93I,2.4 µM,1 of 3,1 of 9
S26I+Y29L+S55C,19 µM,2 of 3,5 of 9
S26R+S92Q+F98T,7.3 µM,2 of 3,4 of 9
S26N+A32N+N33P,1.2 µM,1 of 3,3 of 9
S26M+N33Y+R53Q,4.4 µM,2 of 3,4 of 9
S26G+A32C+N33S,1.5 µM,3 of 3,2 of 9
S26L+R90Y+F95M,15 µM,2 of 3,3 of 9
S26V+G49N,nd,0 of 3,4 of 9
S26A+R53T+S93Y,1.7 µM,3 of 3,2 of 9
S26G+A32M+K50I,6.0 µM,3 of 3,6 of 9
S26Y+L27F+Y30V,710 nM,3 of 3,4 of 9
S26Y+S88I+F98N,130 µM,1 of 3,1 of 9
S26W+S92W+V97F,12 µM,2 of 3,3 of 9
D25H+S26N+F95A,350 nM,3 of 3,4 of 9
G24R+S26Q+A32P,570 nM,2 of 3,4 of 9
S26W+S55M+S93P,10 µM,3 of 3,4 of 9
S26W+N51S+S89H,6.5 µM,2 of 3,4 of 9
S26I+S92R,1.6 µM,3 of 3,4 of 9
S26C+S92Q,180 nM,3 of 3,5 of 9
S26M+S92F+F95W,14 µM,2 of 3,2 of 9
S26M+Y31A+K50V,350 nM,3 of 3,2 of 9
S26I+L27G+Y30Q,63 nM,3 of 3,3 of 9
S26H+P54D+F95L,4.1 µM,1 of 3,2 of 9
S26H+P54S+S89Q,2.9 µM,1 of 3,0 of 9
E23N+D25V+S26L,3.9 µM,2 of 3,4 of 9
S26M+Y31I+R53K,16 µM,2 of 3,5 of 9
S26M+N51Y+V97M,15 µM,1 of 3,2 of 9
S26P+L27A+S92Q,nd,0 of 3,1 of 9

Repeated from above, the 4 best binders with a signal in all replicates:

{"changes": "S26F+Y30S", "apparent Kd": "23 nM", "replicates with signal": "3 of 3", "control signals": "4 of 9"}
{"changes": "S26I+L27G+Y30Q", "apparent Kd": "63 nM", "replicates with signal": "3 of 3", "control signals": "3 of 9"}
{"changes": "S26E+G94W+F95M", "apparent Kd": "110 nM", "replicates with signal": "3 of 3", "control signals": "4 of 9"}
{"changes": "S26C+S92Q", "apparent Kd": "180 nM", "replicates with signal": "3 of 3", "control signals": "5 of 9"}